Laboratory results: patent publication US8247403B2, “Benzoxazepine derivatives and use thereof” (Takeda Pharmaceutical Company Limited, priority 2007, dated 2012)
Structures can show the parent of a compound that is named as a salt.

By UniProt entry, the sequences of proteins in these tests, tags left out. Residues count along the entry.
UniProt P28335, 33-458 I156V/N158S/I160V limits assumed: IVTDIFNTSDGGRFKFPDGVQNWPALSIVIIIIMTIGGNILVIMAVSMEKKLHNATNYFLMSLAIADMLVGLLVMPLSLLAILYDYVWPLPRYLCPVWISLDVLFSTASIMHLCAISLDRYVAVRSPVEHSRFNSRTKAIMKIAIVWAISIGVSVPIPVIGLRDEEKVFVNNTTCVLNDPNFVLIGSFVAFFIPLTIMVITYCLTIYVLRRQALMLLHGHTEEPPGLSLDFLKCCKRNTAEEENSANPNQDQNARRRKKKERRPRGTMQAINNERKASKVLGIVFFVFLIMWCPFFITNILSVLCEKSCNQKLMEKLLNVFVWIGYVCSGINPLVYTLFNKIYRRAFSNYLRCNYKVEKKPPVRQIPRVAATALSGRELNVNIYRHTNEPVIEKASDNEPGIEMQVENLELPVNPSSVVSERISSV

Molecular target: serotonin 5-HT2C receptor (Homo sapiens, UniProt P28335, I156V/I160V/N158S)
Test: cell-based
Settings: CHO, read-out: ratio to maximum response by 5-HT (1 μM)

Which activation at 1 µM does the source give for CC(C)c1cccc2c1OCCNC2 [Example 54, 9-(1-methylethyl)-2,3,4,5-tetrahydro-1,4-benzoxazepine hydrochloride] here?
Its activation at 1 µM is 107%.
